Measured affinities in a library of Ab-14 light chain variants

Reference: Li et al. 2023, doi:10.1038/s41467-023-39022-2. File: FLAb, binding data.

Target: peptide PDVDLGDISGINAS, taken from heptad repeat 2 (HR2) of SARS-CoV-2 spike.

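The starting antibody came from a phage panning campaign against this peptide. These sequences belong to a second round, designed from the earlier measurements on random variants of the parent. Their group label is 14L_En_Gibbs (En: ensemble of fine-tuned language models; Gibbs: Gibbs sampling). Affinity was read by AlphaSeq, a pooled yeast mating assay with surface-displayed partners. Binding brings cells together so that they mate, and sequencing counts the barcode pairs among the diploids. Read counts were normalised to the haploid input and turned into Kd by a linear fit to BCL2-family pairs of known affinity, for each replicate. Mating was done six times.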

Ab-14 is the parent antibody, in scFv form: VH, then a 15-residue (Gly4Ser)3 linker, then VL. The heavy chain is unchanged in all variants.
VH: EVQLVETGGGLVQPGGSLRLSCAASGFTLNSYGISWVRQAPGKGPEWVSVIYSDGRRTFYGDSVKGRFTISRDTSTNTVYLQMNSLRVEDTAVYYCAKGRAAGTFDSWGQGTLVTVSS
VL: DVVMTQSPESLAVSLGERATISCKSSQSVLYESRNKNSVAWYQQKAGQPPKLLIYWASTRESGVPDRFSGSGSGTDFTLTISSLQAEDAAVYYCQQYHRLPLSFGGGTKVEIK

Each variant is given by its three light chain CDRs, as the data file delimits them; those of the parent are KSSQSVLYESRNKNSVA, WASTRES, QQYHRLPLS.
Scale: log10 of Kd in nM, estimated from mating counts; low values are strong binders.
A pair that was not seen in that replicate is written "nd"; this usually means weak binding, but a binder can also be missed.
In the paper, a design with two or fewer of six values counts as a poor binder.
A sequence measured in both rounds can read differently, since the two assays cover different ranges.
Empty control strains, which show no peptide, gave a signal in 4% of pairings with all light chain designs; the median was 2.64 and 95% of these signals were weaker than 1.59. No background was subtracted. The control count says in how many pairings with the empty strains this scFv gave a signal, with their mean in brackets.
The parent sequence was in this pool as ten entries: three were never detected, three once, and four in most replicates, with averages from 0.34 to 2.37.

CDR-L1	CDR-L2	CDR-L3	log10 Kd, replicates	empty controls
HFAHPWQSGYESKQNVA	NDSTVMT	QHYNRLPLS	nd / nd / nd / 2.82 / nd / 2.91	1 of 18 (3.74)
NLGGLDVNSTYEMDAVA	DVNEVGE	QHYSRLPLT	nd / nd / nd / nd / nd / 3.97	1 of 18 (2.68)
HFDDLDVEWDANQSQVA	DHNEAQH	QQYARLPLS	1.55 / 1.79 / 1.59 / 1.71 / 1.71 / 2.15	4 of 18 (3.13)
RLRFQDLGWSYDANNIA	GATLSIK	QQYGRLPLT	0.86 / 0.97 / 0.61 / 0.75 / 0.80 / 1.06	2 of 18 (3.13)
NISYLQGVSTNSVNNVA	QASMRAP	QYYQRLPLC	0.58 / 0.45 / 0.47 / 0.03 / 0.43 / 0.77	0 of 18
HLSLRLSYGKMLQNAVA	GVQHRMT	QQYARLPLL	nd / 1.36 / nd / nd / 1.55 / nd	0 of 18
HMMHNQLDYKNRENNIA	HESMRLV	QQYSQLPLT	0.78 / 0.64 / 0.61 / 0.56 / 0.53 / 0.57	2 of 18 (2.71)
RLTNEFFKEMERKNSVA	HTDQRCM	QQYFRLPLI	1.37 / 0.73 / 0.80 / 0.94 / 0.75 / 0.97	1 of 18 (3.01)
NLSWKLIGFENEWMAVA	NTSERNA	QQYARLPLS	0.70 / 0.47 / 1.35 / 0.92 / 0.85 / 1.02	1 of 18 (1.78)
MLEIIPNGYMKMRSNVA	DGSLVRM	QQYARLPLM	nd / nd / nd / nd / nd / nd	0 of 18
KLMEQFGHSMDHANNIA	HVDMLAQ	QQYMHLPLI	0.68 / 0.61 / 0.78 / 1.08 / 1.02 / 1.42	0 of 18
YLFNQRSYGDADQRNIA	NGRMRED	QQYARLPLT	0.37 / -0.62 / -0.34 / -0.53 / -0.05 / -0.34	0 of 18
MMLSHSLEVQNINNAVA	EASMVYD	QQYGSLPLS	nd / nd / 2.44 / 2.67 / nd / nd	3 of 18 (2.74)
KLGEQGGHSMDHANNIA	EVDMLDQ	QQYMRLPLI	0.58 / 0.27 / -0.08 / 0.35 / 0.17 / 0.31	0 of 18
KLVQPDDNDNQHMRNVA	DENTLGQ	QQYNRLPLG	1.01 / 1.26 / 1.74 / 0.93 / 1.30 / nd	0 of 18
KLYERGEISSKVDRSIA	EMSTRQE	QSYQRLPLS	1.39 / 1.47 / 0.99 / 1.40 / 1.95 / 1.06	0 of 18
TLMMQPTEQRDNKHAVA	DNNQRDR	QQYMRLPLS	0.14 / 0.02 / -0.25 / -0.08 / -0.14 / 0.07	2 of 18 (3.13)
QFSNVNMQGNAQWANVA	EASYAFE	QQYARLPLQ	1.15 / 1.30 / 0.75 / 1.07 / 1.41 / 1.16	1 of 18 (3.26)
NMEGVEFEIAQHGNSVA	GVDLREA	QQYARLPLH	0.76 / 0.85 / 0.56 / 0.91 / 0.67 / 1.20	1 of 18 (2.18)
SIEWEEWNGQSVKHNIA	ADTKVLE	QQYFRLPFT	0.63 / 0.46 / 0.41 / 0.29 / 0.52 / 0.67	1 of 18 (2.90)
NMFDKDYLDDNNENNIA	ERTARGL	QQYSRLPLT	0.55 / 0.50 / 0.77 / 0.19 / 0.64 / 0.52	1 of 18 (3.03)
KMETHSQDNRLDWSAIA	EAQTIYQ	QQYARLPLS	nd / nd / 0.03 / nd / 1.28 / 1.39	1 of 18 (0.90)
HMNKFMSEIGGARNSIA	GADTLAQ	QHYHRLPLS	0.58 / 0.69 / 0.15 / 0.10 / 0.39 / 0.57	2 of 18 (2.14)
QIQGKLQHGGNQGANVA	QGVESKN	QQYYTLPLT	0.72 / 1.47 / 1.12 / 0.70 / 1.13 / 1.57	1 of 18 (2.89)
RIQDHHAVGEMRHSSIA	EESYRMD	QQYSRLPLA	-0.10 / 0.07 / 0.33 / -0.09 / -0.12 / 0.43	0 of 18
RISYEQFGNTYSVNNVA	QASVRAY	QMYQRLPLV	0.41 / 1.04 / 1.50 / nd / nd / 2.23	0 of 18
TGNVELAQGVHEMNNVA	DGDQKED	QQYYRLPLA	0.81 / 0.62 / 0.40 / 0.51 / 0.31 / 0.53	2 of 18 (3.03)
KIQHTHVGNEKKMENIA	QGDQRCQ	QSYDRLPLS	1.41 / 1.83 / 1.67 / 1.85 / 1.44 / 2.46	2 of 18 (3.16)
VMNITLQVGEQMNANVA	NAIQRFQ	QQYARLPLT	0.33 / 0.65 / 0.68 / 0.44 / 0.86 / 0.79	0 of 18
QVQAFNEHLKDQTQAMA	EATMRDA	QQYERLPLS	0.26 / 0.74 / 0.06 / -0.22 / -0.14 / 0.45	0 of 18
KMEMDFDGNDVNRNSIA	SDEAVTR	QHYARLPLS	nd / nd / nd / nd / nd / nd	0 of 18
SFSQHTMEEMSSNKAVA	EVTTLMN	QQYAQLPFI	0.94 / 0.85 / 1.25 / 0.76 / 0.92 / 1.05	0 of 18
KLSMEPLVEWNRAQAIA	DAHASYI	QQYFHLPLY	nd / nd / nd / nd / nd / 1.04	1 of 18 (2.08)
FFGYDIFQENMKAKSIA	EANMKVE	QQYAILPLT	nd / nd / 1.95 / 1.54 / 1.60 / nd	0 of 18
MVNTNLVHQAQRDNNIA	EADMVAA	QDYDRLPLI	2.49 / 1.58 / 1.57 / 2.37 / 3.11 / 3.17	1 of 18 (4.78)
GFSQDFYGERNMANQVA	DGNQLAN	QQYARLPLV	0.54 / 0.60 / 0.48 / 0.14 / 0.30 / 0.45	1 of 18 (2.20)
TIDQYTSYENGENWAIA	DVSIKDY	QQYARLPLL	0.79 / 0.60 / 1.17 / 0.20 / 1.36 / 0.99	0 of 18
MLWQQMEGFNGVKDAIA	NAEERTG	QQYGRLPLS	1.46 / 1.60 / 1.36 / 1.18 / 1.87 / 1.90	0 of 18
RMQEDNQLGTNIGNNIA	EHQTVFD	QQYAHLPLQ	nd / 1.92 / 1.56 / 1.02 / 1.29 / 2.56	0 of 18
FMEMDFQENSGNHNSVA	SEEVKTR	QHYGRLPLS	nd / nd / nd / nd / nd / nd	1 of 18 (0.77)
QLDHQLQYDDANKQAVA	EMTEVTT	QQYHRLPLE	1.54 / 1.82 / 1.56 / 3.12 / 1.83 / 1.53	1 of 18 (2.63)
ALTFPEESVDHHMNSIA	STEKLCM	QQYARLPLS	0.38 / 0.28 / 0.40 / 0.31 / 0.19 / 0.41	2 of 18 (2.14)
RLQAHMYDDQEHVNAIA	AGHDRAK	QQYQRLPLS	1.06 / 1.09 / 1.39 / 1.04 / 1.73 / 1.50	2 of 18 (3.02)
KLWAYLQGLERNMQNVA	DGIYRST	QQYDRLPLS	0.69 / 0.59 / 0.35 / 0.32 / 0.47 / 0.52	1 of 18 (1.66)
MITEGQLGENKNSSNIA	SQDQKTD	QQYQRLPLI	1.57 / 1.34 / 1.36 / 1.07 / 0.89 / 1.61	1 of 18 (2.54)
NMSDSTEKMASIERNIA	DETTRAM	QQYYRLPLS	0.15 / 0.53 / 0.84 / 0.60 / 0.52 / 0.61	1 of 18 (2.48)
KMVKWESEGDRHAANIA	NANKITD	QQYYRLPLA	1.07 / 0.95 / 1.35 / 1.16 / 1.27 / 1.52	1 of 18 (2.59)
TIDQYTSYENGENRAIA	DVSIKDY	QQYARLPLL	1.59 / 0.90 / nd / 2.21 / 1.86 / 1.31	0 of 18
NISIEDYSEHNFANNVA	STDCRCD	QQYFMLPLM	nd / nd / nd / nd / nd / nd	0 of 18